Legend:
Expi293 cells [1] = settings: percentage of Helicons in cells after treatment and wash; Expi293 cells 1x10^6 cells/mL, 22 hours, 37°C; washed twice with DPBS; MS quantitation, single-point calibration; n=2, mean ± SD
Expi293 cells [2] = settings: luminescence at Tfinal (22 hours) divided by Tinitial, measure of ATP levels, reflective of cell health

Row | SMILES | Helicon in cells ± SD (%) (Expi293 cells [1]) | CellTiter-Glo fold change ± SD (Expi293 cells [2])
1 | CC[C@H](C)[C@H](NC(C)=O)C(=O)N[C@@H](CC(C)C)C(=O)N[C@H](C(=O)N[C@]1(C)CCCCCCC=CCCC[C@@](C)(C(=O)N[C@@H](CCC(N)=O)C(=O)N[C@@H](Cc2ccc(O)cc2)C(=O)N[C@@H](CCC(N)=O)C(N)=O)NC(=O)[C@H]([C@@H](C)O)NC(=O)[C@H](Cc2ccccc2)NC(=O)[C@H](C)NC(=O)[C@H](C)NC(=O)[C@H](CCC(=O)O)NC(=O)[C@H](Cc2ccc(O)cc2)NC1=O)[C@@H](C)O [FP08029] | 0.2 ± 0.0% | 1.1 ± 0.03
2 | CC[C@H](C)[C@H](NC(C)=O)C(=O)N[C@@H](CC(C)C)C(=O)N[C@H](C(=O)N[C@]1(C)CCCCCCC=CCCC[C@@](C)(C(=O)N[C@@H](CCC(N)=O)C(=O)N[C@@H](Cc2ccc(O)cc2)C(=O)N[C@@H](CCC(N)=O)C(N)=O)NC(=O)[C@H]([C@@H](C)O)NC(=O)[C@H](Cc2ccccc2)NC(=O)[C@H](C)NC(=O)[C@H](C)NC(=O)[C@H](CCC(=O)O)NC(=O)[C@H](Cc2ccc(O)cc2)NC1=O)[C@@H](C)O [FP08030] | 0.3 ± 0.0% | 1.2 ± 0.02
